ETB/ETA and IC50 data for 1 molecule are collected here from patent US6413979B1, “Substituted 5-(2,2-difluoro-1,3-benzodioxol-5-yl) cyclopentenopyridine derivative” (Banyu Pharmaceutical Co., Ltd., priority 1998, dated 2002).

By UniProt entry, the sequences of proteins in these tests, tags left out. Residues count along the entry.
UniProt P25101, 21-427 limits assumed: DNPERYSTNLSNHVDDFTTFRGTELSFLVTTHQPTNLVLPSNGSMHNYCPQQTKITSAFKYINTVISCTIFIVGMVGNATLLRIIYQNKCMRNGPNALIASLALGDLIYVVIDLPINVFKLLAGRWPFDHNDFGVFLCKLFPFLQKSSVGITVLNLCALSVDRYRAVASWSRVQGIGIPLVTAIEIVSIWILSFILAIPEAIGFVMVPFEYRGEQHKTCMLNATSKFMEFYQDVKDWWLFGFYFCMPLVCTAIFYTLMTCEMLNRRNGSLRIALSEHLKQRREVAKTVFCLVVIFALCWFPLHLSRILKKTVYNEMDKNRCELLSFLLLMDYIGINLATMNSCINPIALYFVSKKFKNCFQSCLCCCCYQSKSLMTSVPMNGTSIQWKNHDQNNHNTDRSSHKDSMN
UniProt P24530, 27-442 limits assumed: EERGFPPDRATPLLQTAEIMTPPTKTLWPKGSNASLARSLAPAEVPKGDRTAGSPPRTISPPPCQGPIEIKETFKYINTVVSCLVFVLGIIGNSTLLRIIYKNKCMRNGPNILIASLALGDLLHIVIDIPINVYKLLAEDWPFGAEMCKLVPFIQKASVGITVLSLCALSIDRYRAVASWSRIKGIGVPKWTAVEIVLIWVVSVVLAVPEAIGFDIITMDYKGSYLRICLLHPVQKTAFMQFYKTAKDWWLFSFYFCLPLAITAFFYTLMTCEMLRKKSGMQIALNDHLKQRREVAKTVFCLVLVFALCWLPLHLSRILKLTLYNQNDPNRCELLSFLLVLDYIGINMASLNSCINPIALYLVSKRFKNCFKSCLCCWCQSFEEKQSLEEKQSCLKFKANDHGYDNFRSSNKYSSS

The target in one assay is ETA receptor (Homo sapiens, UniProt P25101). Put plainly: Endothelin binding inhibition test on human endothelin receptors ([125I]endothelin-1), ETA. As for the experimental part:
(§1) Endothelin Binding Inhibition Test on Human Endothelin Recepters
(§2) The human neuroblastoma SK-N-MC cells or the human Giradi heart cells, purchased from Dainippon Seiyaku (Japan), were cultured in minimal essential medium supplemented with fetal calf serum. The cells were collected and homogenized in 10 mM MOPS buffer (pH 7.4) containing 154 mM NaCl, 10 mM KCl, 0.8 mM CaCl2 and 20% sucrose at 4° C. using a polytron homogenizer. The homogenate was then centrifuged at 10,000×g for 15 minutes. The supernatant was centrifuged at 100,000×g for 1 hour at 4° C. Then the pellet was washed with 5 mM HEPES/Tris buffer (pH 7.4). […] After the filtration, the filters were washed with buffer B, and the radioactivity on the filters was measured in a γ counter. Nonspecific binding was determined in the presence of 200 nM endothelin-1. […]
(§3) where (A): for nonspecific binding including 200 nM of unlabeled endothelin-1 as the final concentration, (B): for total binding including labeled endothelin-1 without a test compound, and (C): for binding including labeled endothelin-1 with a concentration of a test compound, show the radioactivity.

Another assay deals with ETB receptor (Homo sapiens, UniProt P24530). The experiment in a line: Endothelin binding inhibition test on human endothelin receptors ([125I]endothelin-1), ETB. To be noted: read-out: ETB (IC50, inhibition of [125I]endothelin-1 binding); human cell membranes, 20 pM [125I]endothelin-1, 4 hours incubation. The procedure:
as §1, §2, §3

With `COc1ccc([C@@H]2c3nc(NC(C)C)ccc3[C@H](c3ccc4c(c3)OCO4)[C@H]2C(=O)O)c(CC(C)C(=O)O)c1` (single isomer, unassigned), at ETA receptor (ratio of IC50 values), the ETB/ETA result is given as “ETB/ETA = 24”. The IC50 at ETA receptor (read-out: ETA (IC50, inhibition of [125I]endothelin-1 binding), human cell membranes, 20 pM [125I]endothelin-1, 4 hours incubation) stood at 0.042 nM; at ETB receptor, 1 nM.
